Screens deposited in PubChem by National Center for Advancing Translational Sciences (NCATS).
Compounds with a hit are over-represented: about 0.72% of the library has one in this group of screens.
ASM inhibitor: blocks human secretory acid sphingomyelinase; P17405; actives 0.006% (n = 340,000); Potency, µM (doses to about 57.5 µM), for the others: at the highest dose activity change, negative = inhibition, hits mostly inhibitors; placental ASM, HMU-PC fluorogenic substrate, 60 min; note: potency is the fitted concentration of half-maximal effect
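Steps: dispense placental human ASM, pin compound, wait 10 min at room temperature, add HMU-PC0 substrate at 9 uM final, incubate 60 min at 37 °C, add stop solution raising pH to 10, read fluorescence.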
miR-21 FLuc: raises the signal of a miR-21 reporter | HeLa miR-21 FLuc reporter, luciferase, 48 h | Potency, µM (doses to about 38.3 µM), without a hit: at the top dose reporter change, positive = more light | 340,000 tested, under 10 active | AID 2288; active = well fitted rising curve with a large enough effect; inconclusive = small, poorly fitted or top-dose-only effect; inactive = no such curve, though single readings can be large or run the other way;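 note: % of control where 0% means no effect; miR-21 action dims this reporter so a rising signal means less miR-21 action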
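Using DMEM plus 10% FBS, HeLa miR-21-FLuc cells are incubated with test compounds (final up to about 40uM) for 48 hours; firefly luciferase signal is then imaged following reagent-mediated lysis.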
ERG-DNA inh: inhibitors of human ERG Ets domain-DNA interaction. Potency, µM (top dose mostly 76.9 µM), without a hit: top-dose FP activity, negative = inhibition, hits mostly inhibitors. actives 0.028% (n = 370,000). fluorescence polarization, His-ERG Ets domain / labelled DNA. AID 624246. P11308; active = well fitted inhibition curve with a large enough effect in the polarisation, with a control signal flat; inconclusive = small, poorly fitted or top-dose-only effect, or effect the other way, or a change in a side signal; inactive = no such curve, though single readings can be large or run the other way; the % refers to the polarisation;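 note: polarization taken with two DNA probes labelled with fluorescein and Texas red; potency is the fitted concentration of half-maximal effect; % of control where 0% means no effect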
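His-tagged ERG Ets domain (1 uM in the protein solution; 300mM KCl, 50mM Tris-HCl, 1mM EDTA, 1mM DTT, pH 7.5) received compound, then a probe mix of 5 nM fluorescein-DNA and 100nM Texas-615-DNA. Fluorescence polarization was read for both dyes.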
RXFP1 antagonist: antagonists of human relaxin receptor RXFP1; actives 0.59% (n = 350,000); activity change, negative = inhibition, % at 57.5 µM; HEK293-RXFP1, relaxin-stimulated cAMP HTRF, 30 min; hits give low values; AID 1259400;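 active = activity change of -60% or lower, but not beyond a set lower limit; inconclusive = change between -60% and -40%, or beyond the set limit; inactive = change above -40%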; note: % is set by controls: 0 for no effect and ±100 for the full control effect
RXFP1 ag: RXFP1 (human) receptor agonism; Q9HBX9; HEK293T-RXFP1 cAMP TR-FRET, 30 min; response scale: percent of porcine relaxin response, buffer zero; Potency, µM (doses to about 57.5 µM), for inactives: at the top dose activation, hits mostly activators; AID 2676; actives 0.3% (n = 370,000); note: potency is the fitted concentration of half-maximal effect; % is set by controls: 0 for no effect and ±100 for the full control effect; nearly all actives have a fitted effect of over 60% in size
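HEK293 cells stably expressing RXFP1, treated 30 min at 37C with compounds plus PDE4 inhibitor Ro 20174; cAMP measured by HTRF TR-FRET. Normalized to buffer and 29 nM porcine relaxin; EC50 by Hill fit.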
Mito fusion act: blocks mitochondrial division or promotes mitochondrial fusion. S. cerevisiae fusion-defective mutant growth rescue, CellTiterGlo 48 h. Potency, µM (doses to about 46.1 µM), for inactives: at the highest dose growth rescue (activation), actives largely listed as activators. actives 0.23% (n = 320,000); note: potency is the fitted concentration of half-maximal effect; % of control where 0% means no effect; nearly all actives have a fitted effect of over 45% in size
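Temperature-sensitive fusion-defective S. cerevisiae (e.g. fzo1-1, mgm1-5) were grown with compound in YPEG medium (3% ethanol, 3% glycerol) for 48 hours at 37C. Growth rescue was measured as viability by CellTiterGlo luminescence after 10 minutes at ambient.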
Numbers without * were called inactive; ? = inconclusive; . = no result given. Unless noted, calls come from the whole dose curve; as a rule, active = well fitted curve in the direction sought with a large enough effect; inconclusive = small, poorly fitted or top-dose-only effect, or another doubt; inactive = no such curve, though single readings can be large; an effect the other way counts as inactive or inconclusive.

SMILES	ASM inhibitor	miR-21 FLuc	ERG-DNA inh	RXFP1 antagonist	RXFP1 ag	Mito fusion act
CN(C)c1cc(NC(=O)CNC(C)(C)C)c(O)c2c1C[C@@H]1C[C@H]3[C@H](N(C)C)C(=O)C(C(N)=O)=C(O)[C@@]3(O)C(=O)C1=C2O	.	.	.	8.4	.	.
Cc1cc(C(=O)COC(=O)c2ccc(O)cc2)c(C)n1-c1ccccc1F	-7.4%	-38.7%	1.0%	-82.8*	2.4%	6.4%
Cc1cc(C(=O)COC(=O)c2ccc[nH]c2=O)c(C)n1-c1ccccc1F	-0.9%	26.0%	1.9%	6.6	1.3%	11.4%
CCOc1ccc2nc(NC(=O)C3(C)CC3(Br)Br)sc2c1 (stereo unspecified)	-0.3%	.	12.6%	-84.5*	.	.
CNC(=O)c1ccccc1Sc1ccc2c(/C=C/c3ccccn3)n[nH]c2c1	.	.	.	28.2	.	.
CCOC(=O)C(=O)CCc1ccccc1	.	.	.	-5.8	.	.
CCOC(=O)N1CCN(c2nc3ccccc3n3cnnc23)CC1	1.6%	-7.3%	0.5%	8.4	12.6%	25.1µM*
CC(C)C1N=C2c3ccccc3N=C(SCC(=O)NCc3ccccc3Cl)N2C1=O (stereo unspecified)	.	-0.4%	3.8%	16.3	0.7%	.
CN1C/C(=C/c2ccncc2)C(=O)/C(=C/c2ccncc2)C1	-0.2%	?	-4.5%	-30.2	0.7%	-35.0%
C=CC(=O)N1C/C(=C/c2ccccc2)C(=O)/C(=C\c2ccccc2)C1	-1.0%	.	10.5%	-115.6*	.	.
C=CC(=O)N1C/C(=C/c2ccc(Cl)cc2)C(=O)/C(=C\c2ccc(Cl)cc2)C1	-10.6%	.	.	-67.2*	.	.
Cc1ccc(C23CC4CC(CC(CN)(C4)C2)C3)cc1	-1.0%	?	-9.5%	-9.4	0.5%	2.8%
Cc1ccc(C23CC4CC(CC(CC(=O)NC(C)(C)CO)(C4)C2)C3)cc1	-1.9%	0.1%	-4.4%	-13.3	-0.3%	17.8µM*
COc1cc(SC)ccc1C(=O)NC1CCCCC1	-2.7%	-46.6%	1.9%	-5.4	3.4%	31.6µM*
COc1cc(SC)ccc1C(=O)N1CCN(Cc2ccccc2)CC1	4.4%	4.7%	-13.5%	4.6	0.0%	4.4%
COc1cc(SC)ccc1C(=O)OCC(=O)NC1CCCCC1	1.8%	-18.4%	-8.8%	5.8	5.7%	-7.0%
COc1cc(SC)ccc1C(=O)N1CCC(Cc2ccccc2)CC1	.	.	.	.	.	20.6µM*
CC(=O)Nc1cccc(NC(=O)CSc2nc3c(c(=O)n(C)c(=O)n3C)n2C)c1	27.5%	11.6%	6.0%	25.5	28.2µM*	-4.1%
COc1ccc(-c2cc3ncc(C)n3c(Nc3ncccc3C(N)=O)n2)cc1OC	.	.	.	.	.	-1.7%
COc1ccc(NC(=O)Cn2c(=O)n(Cc3ccccc3Cl)c(=O)c3cc(OC)c(OC)cc32)cc1OC	.	-7.5%	2.9%	.	25.1µM*	.

Rewritten field by field: entries from further up
COc1cc(SC)ccc1C(=O)OCC(=O)NC1CCCCC1
  ASM inhibitor = 1.8%	miR-21 FLuc = -18.4%	ERG-DNA inh = -8.8%	RXFP1 antagonist = 5.8	RXFP1 ag = 5.7%	Mito fusion act = -7.0%
COc1cc(SC)ccc1C(=O)N1CCC(Cc2ccccc2)CC1
  ASM inhibitor = .	miR-21 FLuc = .	ERG-DNA inh = .	RXFP1 antagonist = .	RXFP1 ag = .	Mito fusion act = 20.6µM*
CC(=O)Nc1cccc(NC(=O)CSc2nc3c(c(=O)n(C)c(=O)n3C)n2C)c1
  ASM inhibitor = 27.5%	miR-21 FLuc = 11.6%	ERG-DNA inh = 6.0%	RXFP1 antagonist = 25.5	RXFP1 ag = 28.2µM*	Mito fusion act = -4.1%
COc1ccc(-c2cc3ncc(C)n3c(Nc3ncccc3C(N)=O)n2)cc1OC
  ASM inhibitor = .	miR-21 FLuc = .	ERG-DNA inh = .	RXFP1 antagonist = .	RXFP1 ag = .	Mito fusion act = -1.7%

Following part:
SMILES	ASM inhibitor	miR-21 FLuc	ERG-DNA inh	RXFP1 antagonist	RXFP1 ag	Mito fusion act
O=C(CCCn1c(=S)[nH]c2cc3c(cc2c1=O)OCO3)N1CCN(c2ccc(Cl)cc2)CC1	-16.2%	-0.5%	1.8%	-115.8*	2.2%	-6.3%
COc1ccc(NC(=O)CCn2c(=S)[nH]c3ccccc3c2=O)cc1OC	1.1%	-2.4%	-11.5%	-73.7*	16.1%	-1.7%
Cc1cc(C)cc(NC(=O)CCn2c(=S)[nH]c3ccccc3c2=O)c1	0.4%	-4.2%	2.4%	-31.9	0.1%	-2.2%
O=C(CCCn1c(=S)[nH]c2cc3c(cc2c1=O)OCO3)N1CCN(c2ccccc2)CC1	-2.6%	-0.3%	11.3%	-13.6	0.9%	3.5%
COc1ccc(N2CCN(C(=O)CCCCCn3c(=S)[nH]c4cc5c(cc4c3=O)OCO5)CC2)cc1	-2.4%	-2.0%	0.5%	?	?	-0.4%
COc1ccc(NC(=O)Cn2c(=O)n(Cc3ccc(C(=O)NCc4ccccc4Cl)cc3)c(=O)c3ccccc32)cc1OC	.	-8.1%	4.1%	.	0.6%	.
COc1ccc(N2CCN(C(=O)CCCCCn3c(=S)[nH]c4ccc(N5CCOCC5)cc4c3=O)CC2)cc1	.	.	.	-98.4*	.	.
CCN(C(=O)Cn1c(=O)n(Cc2ccccc2)c(=O)c2c1c1cc(OC)ccc1n2C)c1ccccc1	.	2.1%	-2.3%	.	4.6%	.
CCCSCCCNC(=O)c1ccc2c(c1)nc1n2CCCCC1	.	-27.7%	-7.1%	-13.2	7.0%	.
O=C(CCCn1c(=S)[nH]c2cc3c(cc2c1=O)OCO3)NCc1ccco1	-1.4%	-1.4%	-2.7%	-63.6*	6.2%	0.0%
O=C(CCCn1c(=S)[nH]c2ccccc2c1=O)N1CCCCC1	-1.2%	-9.3%	-2.2%	?	0.1%	7.2%
CC1CC(C)CN(C(=O)CCCn2c(=S)[nH]c3ccccc3c2=O)C1 (stereo unspecified)	-2.9%	-5.1%	-0.1%	-97.2*	-0.4%	-3.6%
Cc1cccc(N2CCN(C(=O)CCn3c(=S)[nH]c4cc5c(cc4c3=O)OCO5)CC2C)c1 (stereo unspecified)	-21.2%	-2.9%	-12.1%	-77.2*	0.1%	8.6%
O=C(CCCn1c(=S)[nH]c2cc3c(cc2c1=O)OCO3)NC1CC1	1.0%	0.4%	-2.2%	-71.7*	4.1%	2.0%
O=C(CCCn1c(=S)[nH]c2cc3c(cc2c1=O)OCO3)NCCc1ccc(Cl)cc1	.	.	.	-29.1	.	.
COc1cccc(CNC(=O)c2cccn2-c2nnc(N3CCCC3)s2)c1	.	6.9%	0.1%	-12.8	-1.4%	.
Cc1ccc(S(=O)(=O)Nc2cccc(C(=O)NCC3CCCO3)c2)cc1F (stereo unspecified)	1.4%	.	0.6%	-5.0	-0.2%	-9.9%
COc1ccc(NC(=O)[C@H]2O[C@@H]3OC(C)(C)O[C@@H]3[C@H]3OC(C)(C)O[C@H]32)c(OC)c1	.	-3.0%	0.4%	-11.0	0.5%	.
O=C(CCCn1c(=S)[nH]c2ccccc2c1=O)NC1CCCCC1	1.2%	-4.1%	1.7%	-111.3*	2.7%	-3.2%
O=C(CCCl)NCc1ccccc1	.	.	.	21.4	.	.
Cc1ccc(NC2=NCC(=O)N2C2CCCC2)cc1C	2.6%	-9.4%	7.2%	-68.9*	-1.6%	-1.9%
O=C(O)C1Cc2ccccc2CN1C(=O)CSc1nnc2ccccn12 (stereo unspecified)	3.4%	1.6%	?	8.5	35.5µM*	-7.1%
O=C(CSc1nnc2ccccn12)N1CCc2ccccc2C1	2.3%	-35.7%	-8.5%	-7.4	1.5%	-7.8%
CCc1ccc(-c2nc(CN3CCC(C(=O)NCCN(CC)c4ccccc4)CC3)c(C)o2)cc1	-1.6%	1.8%	-0.8%	-6.7	-2.8%	-11.2%
CCN(CCNC(=O)C1CCN(Cc2nc(-c3ccc(Cl)cc3)oc2C)CC1)c1ccccc1	-0.8%	29.5%	-9.6%	-62.5*	1.1%	-17.2%
